# High-throughput results as filed in PubChem BioAssay.
# GIV-Gai inh: GIV-Galpha-i interaction inhibition; AID 1224905; 210,000 tested, 0.42% active; Galpha-i3/FITC-GIV peptide fluorescence polarization, 90 min; stronger effect = lower value; scaled: aluminum fluoride 0%, vehicle 100%; percent of control (FP), % (concentration not given with the values);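 active = replicate mean at 85% of control or lower, very high polarization wells dropped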;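 also: wells of about 15 µL received 100 nL stock; the first replicate is given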
# HCMV UL50-53 inh: disrupts HCMV UL50-UL53 complex binding; HTRF UL50-UL53 interaction, normalized percent inhibition; inhibition, % (test concentration not listed); hit rate 0.15% among 190,000; AID 1918969; in the data active = inhibition above about 27%, passing the limit was not always enough
# Hits are given with their value; – = inactive; · = not tested or not shown. This is a sample that favours compounds with a hit; in the whole collection about 0.46% have one here.
SMILES,GIV-Gai inh,HCMV UL50-53 inh
Cc1nnc(N2C(=O)C(O)=C(C(=O)c3cccs3)C2c2ccccc2F)s1 (stereo not given),-9.4,–
O=C(C1=C(O)C(=O)N(c2ccccn2)C1c1ccccc1)c1cccs1 (stereo not given),·,–
COc1ccc(NC(=O)NCCNC(=O)c2nonc2N)cc1,–,–
O=C(NC1CCCC1)C1CCN(c2ccc(-c3ccccc3)nn2)CC1,–,–
O=C(NC1CCN(Cc2ccccc2)CC1)C1CCN(c2ccc(-c3ccccc3)nn2)CC1,–,29
O=C1C2=C(NC3=C(C(=O)c4ccccc43)C23C(=O)Nc2ccccc23)c2ccccc21,–,–
CC1(C)C(=O)NC2=C1C(=O)C(=O)c1ccccc12,·,107
CCCOCCOC(=O)C1=C(C)NC2=C(C(=O)CC(C)(C)C2)C1c1cc(Cl)c(O)c(OCC)c1 (stereo not given),–,·
O=C(O)/C=C/c1ccco1,–,–
COC(=O)/C=C/c1ccc2c(c1)OCO2,·,–
CN(C)c1ccc(/C=C/C(=O)/C=C/c2ccco2)cc1,6.8,–
CN(C)c1ccc(/C=C/C(=O)/C=C/c2ccc3c(c2)OCO3)cc1,-64,·
O=C(Nc1ccc(Cl)c(Cl)c1)c1c(O)c2ccccc2[nH]c1=O,–,–
CCN1CCN(c2ncc(N3CCC(C(=O)N4CCC5(CC4)OCCO5)CC3)cn2)CC1,–,·
Cn1nc(-c2nnc(-c3ccccc3F)o2)c2c1CCN(S(=O)(=O)c1cccc3nsnc13)C2,–,·
NC(=O)Cc1ccc(C(=O)CSc2nnc(-c3cccs3)n2C2CC2)s1,·,–
CC1Cc2ccccc2N1S(=O)(=O)c1ccc2[nH]c(=O)[nH]c2c1 (stereo not given),·,–
Cc1[nH]c(=O)[nH]c(=O)c1S(=O)(=O)N1c2ccccc2CC1C (stereo not given),-73,·
Cc1nc(C(=O)NC2(O)C(=O)c3ccccc3C2=O)cs1,–,60
CSc1ncccc1C(=O)NC1(O)C(=O)c2ccccc2C1=O,–,56
O=C(NC1(O)C(=O)c2ccccc2C1=O)c1cnn(-c2ccccc2)c1C(F)(F)F,–,–
CSc1ncccc1C(=O)Nc1ccccc1C,–,·
CC(c1ccccc1)N1CCn2c(nc3ccccc32)C1 (stereo not given),–,–
CCOc1ccc2nc(SCC(=O)Nc3cc(Cl)ccc3OC)sc2c1,–,–
CCOc1cccc(CN2C(=O)c3ccccc3CC2(C)C(=O)NCc2cccc(OC)c2)c1 (stereo not given),–,·
SMILES,GIV-Gai inh,HCMV UL50-53 inh
Cc1ccc2c(c1)Oc1cc(Cl)c(S(=O)(=O)N3CCOCC3)cc1C(=O)N2,–,·
O=c1[nH]c2c(s1)C=Nc1cc3ccccc3cc1N2,59,–
CC1(C)c2ssc(=S)c2-c2ccccc2N1CC(=O)c1ccc(F)cc1,–,·
COc1ccc(-c2cc(=O)oc3cc(O)c(Cl)cc23)cc1,–,–
O=c1cc(C(F)(F)F)c2cc(Cl)c(O)cc2o1,-94,–
CC1CCN(C(=O)c2cc(S(=O)(=O)N(C)CC(=O)N3CCN(c4ccccc4)CC3)c[nH]2)CC1,–,–
CC(C)(C)C(=O)[C@@H]1[C@@H](c2cccs2)C(C#N)(C#N)[C@H]2C=Cc3ccccc3N12,-45,·
CC(C)(C)C(=O)[C@@H]1[C@@H](c2ccsc2)C(C#N)(C#N)[C@H]2C=Cc3ccccc3N12,–,·
O=C(CSc1nnnn1-c1ccccc1)N(C1CCCCC1)C1CCCCC1,–,–
Cc1nc(Nc2ccc(NC(=O)C3CCCC3)cc2)cc(N2CCOCC2)n1,–,–
Cn1c(SCc2ccc(F)cc2)nc2ccc(C(=O)N3CCc4ccccc43)cc21,–,·
CCOc1ccc(NS(=O)(=O)c2ccc3nc(-c4ccccc4)[nH]c3c2)cc1,–,–
CCOc1ccc(-c2nc3ccc(-c4nc5ccc(N6CCN(C)CC6)cc5[nH]4)cc3[nH]2)cc1,·,75
O=C(CCc1nc(CSc2nc3ccccc3s2)no1)Nc1ccc(F)cc1F,–,·
COc1cc2cc3c4c(cc(OC)c(OC)c4c2cc1OC)CCN3C,·,67
COc1cc2ccc3c(CCN(C)C)cc(OC)c(OC)c3c2cc1OC,–,·
COc1cc(C=C2C(=O)NC(=O)NC2=O)ccc1Oc1ccc([N+](=O)[O-])cc1[N+](=O)[O-],–,49
COc1cc(C=C2C(=O)NC(=O)NC2=O)ccc1OCc1ccccc1[N+](=O)[O-],–,–
O=c1cnc2ccccc2n1Cc1cc(=O)n2ccsc2n1,·,–
CC(C)N1CC(OCc2ccc(F)cc2)CN(C(=O)c2ccc(C#CC(C)(C)O)o2)CC1=O (stereo not given),·,–
CN1CCCc2cc(/C=C3\CCC(C4CCCC4)C3=O)ccc21 (stereo not given),–,·
CN1CCCc2cc(/C=C3\CC/C(=C/c4ccc5c(c4)N(C)CCC5)C3=O)ccc21,-75,·
CCNc1cc(N(C)C)c2noc3c2c1C(=O)c1ccccc1-3,-21,·
Cc1ccc(Nc2cc(N(C)C)c3noc4c3c2C(=O)c2ccccc2-4)cc1,–,·
